Test results: ChEMBL document CHEMBL4376896, “Synthesis of Novel Potent Archazolids: Pharmacology of an Emerging Class of Anticancer Drugs” (J Med Chem, 2020)

Molecular target: T1, Neutrophil elastase (Homo sapiens) (UniProt P08246)
T1 sequence (whole entry): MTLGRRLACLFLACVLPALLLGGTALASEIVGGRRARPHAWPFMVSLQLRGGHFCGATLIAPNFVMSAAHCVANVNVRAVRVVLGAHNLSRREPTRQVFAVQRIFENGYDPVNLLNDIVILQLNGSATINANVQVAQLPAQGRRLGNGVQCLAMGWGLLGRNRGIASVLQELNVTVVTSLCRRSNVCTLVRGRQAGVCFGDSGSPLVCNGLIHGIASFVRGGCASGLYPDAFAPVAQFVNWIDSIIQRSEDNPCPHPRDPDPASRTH
Experiment: Inhibition of human leukocyte elastase assessed as residual enzyme activity by measuring pNA release at 2.5 uM using chromogenic MeO-Suc-Ala-Ala-Pro-Val-pNA substrate measured over 10 mins by spectrophotometry

For `CO/C1=C\C(C)=C\[C@@H](C)[C@@H](O)[C@@H](C)C/C(C)=C/C=C/[C@H](OC)[C@@H]([C@@H](C)[C@@H](O)[C@H](C)[C@@]2(O)C[C@@H](O)[C@H](C)[C@@H](C(C)C)O2)OC1=O` [BAFILOMYCIN A1], the Activity was over 95%.
